Results: patent US20030199431A1, “Modified peptide nucleic acid (PNA) molecules” (priority 1999, published 2003)

Experiments:
[1] = test system: E. coli K12; test: Bacterial growth inhibition with PNA targeted against the LacZ gene, M9 minimal broth with lactose; type: cell-based, Escherichia coli
[2] = test system: E. coli K12; test: Bacterial growth inhibition with PNA 249 (without peptide, FtsZ) and peptide 250, 100% Mueller-Hinton broth (Table 18); type: cell-based, Escherichia coli

H-KFFKFFKFFK-ado-TTC AAA CAT AGT-NH2
Bacterial growth inhibition ([1]; PNA 100 nM, 5 × 10^4 bacteria/ml): − (Lagphase extended less than five times;) | Bacterial growth inhibition ([1]; PNA 100 nM, 5 × 10^5 bacteria/ml, M9 minimal broth with lactose): − (Lagphase extended less than five times;) | Bacterial growth inhibition ([1]; PNA 300 nM, 5 × 10^4 bacteria/ml): − (Lagphase extended less than five times;) | Bacterial growth inhibition ([1]; PNA 750 nM, 5 × 10^4 bacteria/ml): (+) (Significantly extended lagphase, (more than five times)) | Bacterial growth inhibition ([1]; PNA 750 nM, 5 × 10^5 bacteria/ml): − (Lagphase extended less than five times;) | Bacterial growth inhibition ([1]; PNA 1500 nM, 5 × 10^5 bacteria/ml): − (Lagphase extended less than five times;)

H-ado-TTC AAA CAT AGT-NH2
Bacterial growth inhibition ([2]; conc. in wells 250 nM, No of bacteria/ml 8): − (Lagphase extended less than five times;) | Bacterial growth inhibition ([2]; conc. in wells 250 nM, No of bacteria/ml 17): − (Lagphase extended less than five times;) | Bacterial growth inhibition ([2]; conc. in wells 250 nM, No of bacteria/ml 170): − (Lagphase extended less than five times;) | Bacterial growth inhibition ([2]; conc. in wells 500 nM, No of bacteria/ml 8): − (Lagphase extended less than five times;) | Bacterial growth inhibition ([2]; conc. in wells 500 nM, No of bacteria/ml 17): − (Lagphase extended less than five times;) | Bacterial growth inhibition ([2]; conc. in wells 500 nM, No of bacteria/ml 170): − (Lagphase extended less than five times;) | Bacterial growth inhibition ([2]; conc. in wells 750 nM, No of bacteria/ml 8): − (Lagphase extended less than five times;) | Bacterial growth inhibition ([2]; conc. in wells 750 nM, No of bacteria/ml 17): − (Lagphase extended less than five times;) | Bacterial growth inhibition ([2]; conc. in wells 750 nM, No of bacteria/ml 170): − (Lagphase extended less than five times;) | Bacterial growth inhibition ([2]; conc. in wells 1000 nM, No of bacteria/ml 8): − (Lagphase extended less than five times;) | Bacterial growth inhibition ([2]; conc. in wells 1000 nM, No of bacteria/ml 17): − (Lagphase extended less than five times;) | Bacterial growth inhibition ([2]; conc. in wells 1000 nM, No of bacteria/ml 170): − (Lagphase extended less than five times;) | Bacterial growth inhibition ([2]; conc. in wells 1500 nM, No of bacteria/ml 8): − (Lagphase extended less than five times;) | Bacterial growth inhibition ([2]; conc. in wells 1500 nM, No of bacteria/ml 17): − (Lagphase extended less than five times;) | Bacterial growth inhibition ([2]; conc. in wells 1500 nM, No of bacteria/ml 170): − (Lagphase extended less than five times;) | Bacterial growth inhibition ([2]; conc. in wells 2000 nM, No of bacteria/ml 8): − (Lagphase extended less than five times;) | Bacterial growth inhibition ([2]; conc. in wells 2000 nM, No of bacteria/ml 17): − (Lagphase extended less than five times;) | Bacterial growth inhibition ([2]; conc. in wells 2000 nM, No of bacteria/ml 170): − (Lagphase extended less than five times;) | Bacterial growth inhibition ([2]; conc. in wells 2500 nM, No of bacteria/ml 8): − (Lagphase extended less than five times;) | Bacterial growth inhibition ([2]; conc. in wells 2500 nM, No of bacteria/ml 17): − (Lagphase extended less than five times;) | Bacterial growth inhibition ([2]; conc. in wells 2500 nM, No of bacteria/ml 170): − (Lagphase extended less than five times;)
